Results reported in US9284300B2 (dated 2016).

Sequences of proteins named here, by UniProt entry; tags and fusion partners are left off. Residues count along the entry.
UniProt P08581, 25-1390: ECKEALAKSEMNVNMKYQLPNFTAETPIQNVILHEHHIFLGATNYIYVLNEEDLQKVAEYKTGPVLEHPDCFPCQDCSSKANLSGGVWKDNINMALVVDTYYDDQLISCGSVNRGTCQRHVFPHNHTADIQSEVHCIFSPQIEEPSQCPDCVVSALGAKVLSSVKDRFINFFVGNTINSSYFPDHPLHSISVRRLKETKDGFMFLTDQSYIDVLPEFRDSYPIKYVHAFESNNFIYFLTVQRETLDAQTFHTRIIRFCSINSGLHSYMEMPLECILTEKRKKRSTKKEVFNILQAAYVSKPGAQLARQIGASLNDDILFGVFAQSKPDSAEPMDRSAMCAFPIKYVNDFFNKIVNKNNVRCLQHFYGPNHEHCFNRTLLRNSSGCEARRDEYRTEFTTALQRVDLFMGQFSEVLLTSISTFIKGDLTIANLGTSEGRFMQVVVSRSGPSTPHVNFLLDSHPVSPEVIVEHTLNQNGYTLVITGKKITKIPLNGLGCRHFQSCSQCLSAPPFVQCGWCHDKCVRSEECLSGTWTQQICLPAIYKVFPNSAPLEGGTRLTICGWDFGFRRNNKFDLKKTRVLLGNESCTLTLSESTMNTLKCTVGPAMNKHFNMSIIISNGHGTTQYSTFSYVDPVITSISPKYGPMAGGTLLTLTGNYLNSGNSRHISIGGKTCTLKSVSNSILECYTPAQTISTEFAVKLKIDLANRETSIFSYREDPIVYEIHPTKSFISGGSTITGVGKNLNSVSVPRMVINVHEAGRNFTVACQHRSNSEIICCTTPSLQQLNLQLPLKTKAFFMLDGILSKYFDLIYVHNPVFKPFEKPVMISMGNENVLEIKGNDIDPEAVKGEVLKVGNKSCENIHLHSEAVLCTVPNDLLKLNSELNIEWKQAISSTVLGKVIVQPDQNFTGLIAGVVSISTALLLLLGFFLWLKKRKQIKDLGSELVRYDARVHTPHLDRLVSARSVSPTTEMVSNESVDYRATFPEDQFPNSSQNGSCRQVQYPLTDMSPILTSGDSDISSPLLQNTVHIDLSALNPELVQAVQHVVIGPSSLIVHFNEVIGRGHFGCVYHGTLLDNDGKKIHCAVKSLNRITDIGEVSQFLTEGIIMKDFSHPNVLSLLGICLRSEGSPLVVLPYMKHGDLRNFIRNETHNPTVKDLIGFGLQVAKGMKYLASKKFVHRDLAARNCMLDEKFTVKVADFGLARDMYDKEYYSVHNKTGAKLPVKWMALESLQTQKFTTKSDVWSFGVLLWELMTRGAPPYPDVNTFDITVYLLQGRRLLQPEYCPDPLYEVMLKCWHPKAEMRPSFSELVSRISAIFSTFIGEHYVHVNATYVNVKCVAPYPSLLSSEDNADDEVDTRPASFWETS

Biological target: Met kinase (Homo sapiens, UniProt P08581)
Assay: Met kinase inhibition, cell assay
Assay type: cell-based

IC50: 0.001 to 1 µM
Compound: Cc1ccc(-c2cccc(Cn3nc(-c4cc(F)cc(F)c4)ccc3=O)c2)nc1
